# Source: patent publication US20240197869A1, “HYPERACTIVATORS OF MAMMALIAN DENDRITIC CELLS” (Corner Therapeutics, Inc., priority 2021, published 2024)
# Tested on: human monocyte-derived dendritic cells (moDCs)
# Experiment: DAMP screen: IL-1β secretion by LPS-activated human moDCs (ELISA)
# Assay type: cell-based
# Conditions: lipid screens at 82.5 or 41.3 μM + LPS 1 μg/mL
row,SMILES,IL-1β secretion (in words)
1,"CCCCCCCCCCCCCCCCCC(=O)O[C@H](CO)COP(=O)([O-])OCC[N+](C)(C)C [2-18:0 LYSO PC, 2-stearoyl-sn-glycero-3-phosphocholine]",able to induce IL-1beta secretion
2,"CCCCCC/C=C\CCCCCCCCC(=O)OC[C@@H](O)COP(=O)([O-])OCC[N+](C)(C)C [17:1 Δ^10 LYSO PC, 1-(10Z-heptadecenoyl)-2-hydroxy-sn-glycero-3-phosphocholine]",did not induce IL-1beta secretion
3,"CCCCCCCCCCCCCCCCCCC(=O)OC[C@@H](O)COP(=O)([O-])OCC[N+](C)(C)C [19:0 LYSO PC, 1-nonadecanoyl-2-hydroxy-sn-glycero-3-phosphocholine]",robust induction of IL-1β secretion
4,"CCCCCCCC/C=C\CCCCCCCC(=O)O[C@H](CO)COP(=O)([O-])OCC[N+](C)(C)C [2-18:1 Δ9 LYSO PC, 1-hydroxy-2-oleoyl-sn-glycero-3-phosphocholine]",did not induce IL-1beta secretion
5,"CCCCCCCCCCCCCCCC(=O)OC[C@H](COP(=O)([O-])OCC[N+](C)(C)C)OC(=O)CCCCCCCC(=O)O [PAzePC, 1-palmitoyl-2-azelaoyl-sn-glycero-3-phosphocholine, reference compound]",promoted IL-1β secretion
6,"CCCCCCCCCCCCCCCCCCCCCC(=O)OC[C@@H](O)COP(=O)([O-])OCC[N+](C)(C)C [22:0 LYSO PC, 1-behenoyl-2-hydroxy-sn-glycero-3-phosphocholine]",robust induction of IL-1β secretion
7,CCCCCCCCCCCC(=O)OC[C@@H](O)COP(=O)([O-])OCC[N+](C)(C)C [12:0 LYSO PC],smallest acyl chain lipid to stimulate IL-1β secretion
8,CCCCCCCCCC(=O)OC[C@@H](O)COP(=O)([O-])OCC[N+](C)(C)C [10:0 LYSO PC],just outside the range of IL-1β secretion activity
9,"CCCCCCCCCCCCCCCCCCCCCCCC(=O)OC[C@@H](O)COP(=O)([O-])OCC[N+](C)(C)C [24:0 LYSO PC, 1-lignoceroyl-2-hydroxy-sn-glycero-3-phosphocholine]",just outside the range of IL-1β secretion activity

# Tested on: non-human primate, monocyte-derived dendritic cells (moDC)
# Experiment: IL-1beta secretion by non-human primate moDC
# Assay type: cell-based, rhesus macaques
# Conditions: lipid 82.5 or 41.3 uM with R848, 2 days
# Experimental: Non-human primate moDC differentiation and hyperactivation. Whole blood from rhesus macaques was diluted with an equal volume of PBS and over-layed on Ficoll-Paque PLUS solution. Cells were spun at 1000 rcf for 30 minutes at room temperature with no brakes. Buffy coat layer was collected, washed twice using PBS, and counted. To isolate monocytes from the PBMC, human CD14 microbeads from Miltenyi were used according to manufacturer's recommendations. […] Cells were grown in R10 media consisting of RPMI, 10% FBS, penicillin, streptomycin, L-glutamine, sodium pyruvate, and beta-mercaptoethanol.
# Differentiated moDC were collected, counted, and plated at 1×10^5 cells/well in a 96-well plate. Cells were treated with or without hyperactivating stimuli. Hyperactivation cultures were incubated for 2 days before assessing cell viability and IL-1beta secretion. Promega Cell Titer-Glo was used according to manufacturer's instructions to quantify ATP as a measure of cell viability. ELISA kits specific for non-human primate IL-1beta were purchased from Invitrogen, and assays were completed according to manufacturer's instructions.
# Statistical Analyses. Rhesus macaque moDC were generated from four animals. Each activation condition was tested in triplicate and reported data points are the mean of the triplicates for an animal donor sample. […]
row,SMILES,IL-1beta detection in supernatant (lipid concentrations)
1,"CCCCCCCCCCCCCCCC(=O)OC[C@H](COP(=O)([O-])OCC[N+](C)(C)C)OC(=O)CCCC(=O)O [PGPC, 1-palmitoyl-2-glutaryl-sn-glycero-3-phosphocholine, reference compound]",only detectable at 82.5 uM
2,"CCCCCCCCCCCCCCCCCCCCCC(=O)OC[C@@H](O)COP(=O)([O-])OCC[N+](C)(C)C [22:0 LYSO PC, 1-behenoyl-2-hydroxy-sn-glycero-3-phosphocholine]",detectable IL-1beta at 82.5 uM and 41.3 uM
